This is an account of results in patent US7851599B2 (Philogen S.p.A., priority 2006, dated 2010).

Data set [1] has as its system human pancreatic cancer cell line DanG. As to the kind of experiment: Orthotopic DanG pancreatic cancer xenograft, tumor volume. The class given is in vivo, nude mice. Particulars: for tumor volume, % of that observed in control mice: sacrifice day 21; for tumor load compared to control mice: separate experiment, 4.29 MIU/kg BW L19IL2 or equimolar scFv L19 for 10 days.

Data set [2] relates to serum CA 19-9. As to the kind of experiment: Serum CA 19-9 levels in mice bearing orthotopic DanG tumors. Format: in vivo, nude mice.
The subject of data set [3] is orthotopic DanG tumors. The experiment in a line: Histology and immunohistochemistry of DanG tumors (necrosis, TUNEL, Ki67, CD11b, NK1.1). Format: in vivo, nude mice. The protocol:
(§1) Surgically resected human and murine tissue samples were snap-frozen in liquid nitrogen and after fixation in PFA 4%, pH 7 for 20 minutes, 4 μm cryostat sections of the frozen tissue were analyzed immunohistochemically using the avidin-biotin-technique as described previously. Slides were incubated for 1 hour with the following primary antibodies: biotinylated L19IL2 (30 μg/ml), monoclonal mouse anti-human CD31 at a 1:100 dilution, rat anti-mouse CD11b at a 1:50 dilution, biotinylated mouse anti-mouse CD161b/c/NK1.1 at a 1:50 dilution, biotinylated mouse anti-human pancytokeratin at a 1:50 dilution. Sections stained with PBS instead of the primary antibody were used as a negative control. Proliferating cells were detected with a monoclonal mouse anti human Ki67 Ab applying the Animal Research Kit. […] Quantitative immunohistochemical analysis for the area of vital (non-necrotic) tumor tissue was carried out by computer aided imaging analysis using Axiovision 4.2 software (Zeiss, Jena, Germany). For quantification of proliferating, apoptotic and inflammatory cells, 20 randomly selected measurement areas (680×510 μm, magnification×20) of each tumor specimen were analyzed and for evaluation of ED-B FN expression, 10 areas (1390/×/1000 μm, magnification×10) were scanned. […] For quantitative analysis of necrotic tumor area H&E sections were scanned at low power (×2.5). […]

The test system of data set [4] is serum lipase. As to the kind of experiment: Serum lipase as surrogate marker of pancreatitis. Format: in vivo, nude mice. Particulars: DanG-bearing mice; end of treatment.
In data set [5] the test system is orthotopic DanG pancreatic cancer. The experiment in a line: Long-term effects after L19IL2 therapy in the orthotopic DanG model.
Data set [6] concerns MiaPaca cells stably transfected with an Angiopoetin 2 DNA construct (MiaPaca-A2). As to the kind of experiment: Metastatic orthotopic MiaPaca-A2 model, primary tumor and lymph node metastases. The class given is in vivo, nude mice. As to the method:
Orthotopic transplantation was carried out as described.
Surgically resected human and murine tissue samples were snap-frozen in liquid nitrogen and after fixation in PFA 4%, pH 7 for 20 minutes, 4 μm cryostat sections of the frozen tissue were analyzed immunohistochemically using the avidin-biotin-technique as described previously. Slides were incubated for 1 hour with the following primary antibodies: biotinylated L19IL2 (30 μg/ml), monoclonal mouse anti-human CD31 at a 1:100 dilution, rat anti-mouse CD11b at a 1:50 dilution, biotinylated mouse anti-mouse CD161b/c/NK1.1 at a 1:50 dilution, biotinylated mouse anti-human pancytokeratin at a 1:50 dilution. Sections stained with PBS instead of the primary antibody were used as a negative control. Proliferating cells were detected with a monoclonal mouse anti human Ki67 Ab applying the Animal Research Kit. Apoptotic cells were proven by Terminal deoxynucleotidyl transferase mediated dUTP nick end labeling (TUNEL) assay using TumorTACS in situ Apoptosis Detection Kit. Both procedures were carried out following the manufacturer's instructions except that 3-amino-9-ethylcarbazole (AEC) was used as the substrate-chromogen. Negative controls were included by omitting the primary antibody (Animal Research Kit) or the terminal deoxynucleotidyl transferase (TUNEL). Quantitative immunohistochemical analysis for the area of vital (non-necrotic) tumor tissue was carried out by computer aided imaging analysis using Axiovision 4.2 software (Zeiss, Jena, Germany). For quantification of proliferating, apoptotic and inflammatory cells, 20 randomly selected measurement areas (680×510 μm, magnification×20) of each tumor specimen were analyzed and for evaluation of ED-B FN expression, 10 areas (1390/×/1000 μm, magnification×10) were scanned. […] For quantitative analysis of necrotic tumor area H&E sections were scanned at low power (×2.5). Total and necrotic tumor area was marked on the screen and areas were calculated by the image analysis system, and the ratio tumor necrosis area/total tumor area was given in percentages.
Genomic DNA of mouse lymph nodes was extracted using the QIAamp DNA Mini Kit according to the manufacturer's recommended protocol. The presence of human specific DNA was proven by polymerase chain reaction (PCR) amplifying an 850 bp fragment of the α-satellite region of the human chromosome 17 using the forward primer 5′-[…]-3′ and the reverse primer 5′-[…]-3′ according to the protocol reported by Becker et al. (Becker M, Nitsche A, Neumann C, Aumann J, Junghahn I, fichtner I, Sensitive PCR method for the detection and real time quantification of human cells in xenotransplantation systems. Br J Cancer 2002;87:1328-1335). […]

For data set [7], the system named is orthotopic DanG tumors. The experiment in a line: NK cell depletion (anti ASGM-1) in the orthotopic DanG model, tumor volume. The class given is in vivo, nude mice. Particulars: 4.29 MIU/kg BW days 7-11, 14-18. The protocol:
NK cell depletion was performed as previously described. (Peron J M, Couderc B, Rochaix P, Douin-Echinard V, Asnacious A, Souque A, Voigt J J, Bus ail L, Vine J P, Favre G, Treatment of murine hepatocellular carcinoma using genetically modified cells to express interleukin-12. J Gastroenterology Hepatic 2004; 19:388-396.) Briefly, mice were injected i.p. with 50/μl anti asialo-GM-1 (ASGM1) Ab 3 days before tumor cell injection and every 4 days for a total of 6 injections. Quality of NK cell depletion was monitored by flow cytometry and cytotoxicity assay.
To further identify the immune effector cells mediating L19IL2 induced tumor growth inhibition, tumor specimens were immunohistologically assessed for CD11b+ cells, which predominantly include macrophages and for NK cells. […] To further substantiate the suspected role of NK cells, we tested whether NK cell depletion via an anti ASGM-1 antibody interfered with the therapeutic efficacy of L19-IL-2. For this purpose, mice orthotopically engrafted with DanG cells, were randomly assigned to the following treatment groups: NK competent+saline treatment, NK deficient+saline treatment, NK deficient+L19IL2 treatment (4.29 MIU/kg BW L19 on days 7-11, 14-18) and NK competent+L19IL2 treatment (4.29 MIU/kg BW L19 on days 7-11, 14-18).
FIG. 8 Identification of the immune effector cells mediating L19IL2 induced tumor regression. […]

In data set [8] the test system is non-transformed pancreatic tissue. The experiment in a line: Histological analysis of tumors and residual non-transformed pancreatic tissue for pancreatitis. Format: in vivo, nude mice. The note with it: DanG-bearing mice treated with L19IL2 (data not shown). As to the method:
as §1

Data set [9] deals with human pancreatic cancer cell line MiaPaca. As to the kind of experiment: Orthotopic MiaPaca pancreatic cancer xenograft, tumor volume. Format: in vivo, nude mice.
[10] abbreviates: 4.29 MIU/kg BW for 10 days (days 60-64, 67-71).

As to “L19IL2: recombinant fusion protein: IL-2 conjugated to the homodimeric scFv L19, specific for the ED-B of fibronectin”, the “tumor volume, % of that observed in control mice” value in data set [1] (DanG, 1.43 MIU/kg BW IL-2 equivalents i.v. for 10 days (days 7-11, 14-18)) came out at 21.4%; in [1] (DanG, 4.29 MIU/kg BW IL-2 equivalents i.v. for 10 days (days 7-11, 14-18)), 2.7%. Moreover, the “tumor load, % of that observed in controls” value in data set [1] (DanG, 4.29 MIU/kg BW five times by the week, days 7-11 and 14-18, killed day 21) was 12%; in [1] (two applications of L19IL2), 25%. For the same substance, in data set [1] (DanG, 4.29 MIU/kg BW once weekly, thrice weekly or five times by the week), the “tumor growth compared to controls, all regimens” value is recorded as “significant tumor growth delay”. Moreover, the “reduction of tumor volume relative to gemcitabine therapy” value in data set [1] (DanG, L19IL2 i.v. 4.29 MIU/kg BW days 8-12, 15-19 vs gemcitabine 250 mg/kg BW days 7, 14) amounted to 2.3 fold. Besides, the “mice with complete remission” value in data set [1] (DanG, gemcitabine 250 mg/kg BW days 7, 14, L19IL2 4.29 MIU/kg BW days 8-12, 15-19, or both) worked out at 37%. Also, the “tumor load compared to control mice” value in data set [1] (DanG) is recorded as “statistically significant decrease of tumor load”. Besides, the “serum CA 19-9 levels in tumor bearing mice” value in data set [2] (after treatment (data not shown)) is “significant decrease”. Moreover, the “serum CA 19-9 levels compared to controls” value in data set [2] (day three after start of treatment) was “two fold lower”. Also, in data set [2] (end of the experiment), the “serum tumor markers versus baseline at start of therapy” value is “did not differ significantly from baseline”. Moreover, in data set [3] (4.29 MIU/kg BW L19IL2 i.v., H&E), the “necrosis, share of tumor area” value was 42±10.86%. Moreover, the “apoptotic cell index (TUNEL) versus vehicle treated controls” value in [3] (residual vital tumor tissue, 4.29 MIU/kg BW L19IL2) was “no relevant difference”. Also, in data set [4], the “serum lipase concentrations compared to controls” value was “neither L19IL2 nor untargeted IL-2 interfered”. For the same substance, the “mice with tumor relapse (elevated serum CA 19-9) and death due to tumor burden” value in data set [5] (DanG, 4.29 MIU/kg BW days 7-11, 14-18, fourth to eighth week after termination of therapy) was “six out of 10”. Further, the “mice surviving without boost of serum CA 19-9, no tumor recurrence at autopsy (cured)” value in data set [5] (DanG, 4.29 MIU/kg BW days 7-11, 14-18, three months after cessation of therapy) was “Four out of 10”. The “complete remission and lack of tumor relapse, share of mice” value in [5] (long-term surviving mice bearing pancreatic cancer) is listed as 40%. For the same substance, the “median lymph node area, % of vehicle-treated controls” value in data set [6] (setting [10]) was “less than 20%”. For the same substance, in data set [6] (setting [10]), the primary tumor volume result is recorded as “significant reduction of primary tumor volume”. In data set [6] (850-bp fragment of human chromosome 17, 4.29 MIU/kg BW for 10 days), the “mice with human-specific DNA PCR positive lymph nodes” value amounted to 33%. Besides, in data set [6] (pancytokeratin immunostaining, 4.29 MIU/kg BW for 10 days), the “mice with large cytokeratin-immunoreactive cells in lymph nodes” value is listed as 20%. Besides, the “effectiveness in NK competent versus NK deficient mice” value in [7] is on record as “more than 5 fold”. The “signs of acute pancreatitis (HE, NK 1.1 and CD11b staining)” value in [8] was “no signs of acute pancreatitis were detectable”. Also, the “tumor load, % of control” value in [9] (1.43 MIU/kg BW IL-2 equivalents, days 40-44, 47-51, killed day 54) stood at 10.4%. The “superiority to untargeted IL-2 (tumor load)” value in [9] (1.43 MIU/kg BW, equimolar amounts) is 8 fold. Also, in data set [9] (4.29 MIU/kg BW, equimolar amounts), the “effectiveness relative to untargeted IL-2 (tumor growth)” value was determined as 3 fold. Besides, the “tumor volume, % of control” value in data set [9] (high dosage 4.29 MIU/kg BW IL-2 equivalents, days 40-44, 47-51, killed day 54) amounted to 16.8%.
For “scFv L19: human homodimeric single chain Fv antibody fragment L19 specific for the ED-B domain of fibronectin”, the “tumor load compared to control mice” value in data set [1] (DanG) is given as “failed to achieve any growth inhibitory effect”.
